SMILES strings stand for the structures. Where only a bound is given, the exact number is not on record here.

The source of these data is ChEMBL document CHEMBL4251579, “Design, synthesis, and biological evaluation of a series of resorcinol-based N-benzyl benzamide derivatives as potent Hsp90 inhibitors” (Eur J Med Chem, 2018).

The assay addresses Heat shock protein HSP 90-alpha (Homo sapiens, UniProt P07900). The experiment in a line: Inhibition of FITC-geldanamycin binding to N-terminal domain of recombinant full-length HSP90alpha (unknown origin) after 16 hrs by fluorescence polarization assay. In general terms: Fluorescence polarisation rises when a labelled molecule tumbles more slowly, as on binding a larger partner.

`O=C(NCc1ccccc1)c1cc(Cl)c(O)cc1O`: the IC50 (usually the concentration at which inhibition is half-maximal) was more than 1000 nM.
